Molecular target: T1, yeast HSP90 (Saccharomyces cerevisiae, UniProt P02829)
T1 construct: made in house; host or cells: E. coli
Assay: Malachite green ATPase assay
Type: biochemical
Settings: activity range
Description: The intrinsic ATPase activity of HSP90 may be measured using yeast HSP90 as a model system. The assay, based on the use of malachite green for the measurement of inorganic phosphate, was used to test the HSP90 inhibitory activity of the compounds of the Examples herein.
Malachite Green ATPase Assay
Chemicals are of the highest purity commercially available and all aqueous solutions are made up in AR water. Because of the need to minimise contamination with inorganic phosphate, precautions should be taken with solutions and apparatus used in the assays. Glassware and pH meters are rinsed with double distilled or deionised water before use and, wherever possible, plastic ware should be used. Gloves are worn for all procedures. • (1) Greiner 384-well (Greiner 781101) or Costar 384-well flat-bottomed polystyrene multiwell plates (VWR). • (2) Assay buffer of (a) 100 mM Tris-HCl, pH 7.4, (b) 150 mM KCI, (c) 6 mM MgCl2. Stored at room temperature. • (3) 0.0812% (w/v) malachite green (M 9636, Sigma Aldrich Ltd., Poole, UK). Stored at room temperature. • (4) 2.32% (w/v) polyvinyl alcohol USP (P 1097, Sigma Aldrich Ltd, Poole, UK) in boiling water (see Comment 1), allowed to cool, and stored at room temperature. • (5) 5.72% (w/v) ammonium molybdate in 6 M hydrochloric acid. […] Measure Absorbance at 620 nm using a suitable plate reader (e.g. Victor, Perkin Elmer Life Sciences, Milton Keynes, UK). […]

By UniProt entry, the sequences of proteins in these tests, tags left out.
UniProt P02829, whole entry, looked up: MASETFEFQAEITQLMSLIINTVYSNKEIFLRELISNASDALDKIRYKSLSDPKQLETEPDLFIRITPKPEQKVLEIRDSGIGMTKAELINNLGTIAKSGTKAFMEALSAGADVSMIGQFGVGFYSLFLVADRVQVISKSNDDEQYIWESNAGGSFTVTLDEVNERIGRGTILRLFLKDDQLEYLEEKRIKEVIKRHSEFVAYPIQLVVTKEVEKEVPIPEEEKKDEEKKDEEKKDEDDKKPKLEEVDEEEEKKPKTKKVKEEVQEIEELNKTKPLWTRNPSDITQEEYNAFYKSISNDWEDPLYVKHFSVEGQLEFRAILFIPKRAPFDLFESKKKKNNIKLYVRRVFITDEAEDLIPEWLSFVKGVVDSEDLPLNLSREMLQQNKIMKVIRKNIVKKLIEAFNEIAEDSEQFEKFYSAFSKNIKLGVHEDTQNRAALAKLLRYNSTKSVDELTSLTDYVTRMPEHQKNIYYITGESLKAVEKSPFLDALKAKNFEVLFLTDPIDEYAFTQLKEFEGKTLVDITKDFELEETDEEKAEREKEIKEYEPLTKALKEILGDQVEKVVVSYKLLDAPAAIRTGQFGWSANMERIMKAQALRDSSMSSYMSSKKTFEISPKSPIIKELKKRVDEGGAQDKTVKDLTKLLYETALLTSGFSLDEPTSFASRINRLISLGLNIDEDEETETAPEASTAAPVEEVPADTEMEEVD

| IC50 | Compound |
| --- | --- |
| < 50 µM | CC(=O)c1ccc(NC(=O)c2c[nH]nc2-c2cc(Cl)c(O)cc2O)cc1 [Example 1, 3-(5-chloro-2,4-dihydroxy-phenyl)-1H-pyrazole-4-carboxylic acid (4-acetyl-phenyl)-amide] |
| < 50 µM | NS(=O)(=O)c1ccc(CNC(=O)c2c[nH]nc2-c2cc(Cl)c(O)cc2O)cc1 [Example 21] |
